What was measured:
A. baumannii AB5075 = details: media supplemented with […] ace-K

For `CC1=CC(=O)[N-]S(=O)(=O)O1.[K+]` [ace-K, potassium salt of 6-methyl-1,2,3-oxathiazine-4 (3H)-one 2,2-dioxide], which transformation efficiency (A. baumannii AB5075) is on record?
The transformation efficiency was “significant reduction”.

What about the “ADI equivalent for a person weighing 75 kg” value of the same molecule?
Its value is “about 1000 mg”.

Reference: US20260076974A1, “COMPOSITIONS FOR PREVENTING AND TREATING INFECTION COMPRISING AN ARTIFICIAL SWEETENER” (Brunel University London, priority 2022, published 2026)
